{"source": "patent US12233161B1", "about": "“Lipids and lipid nanoparticle formulations” (LONGUIDE BIOPHARMA CORPORATION, priority 2024, dated 2025)", "test_system": "mice", "experiment": "In vivo delivery of small molecule IR780 by lipid nanoparticles in mice", "conditions": "IV, 10 min, LNP 1.00:09.00:30.00:51.00:09.00 or IR780 alone"}
{"substance": "IR-780 iodide", "values": [{"measurement": "% of organ targeting", "setting": "Kidney", "result": 13.6, "unit": "%"}, {"measurement": "% of organ targeting", "setting": "Liver", "result": 13.6, "unit": "%"}]}
